Values of other authors as cited in patent US20110195110A1 (published 2011).

Tested on: Imatinib-resistant mutant forms of Bcr-Abl
Settings: 15 Imatinib-resistant mutations tested in cell based assays

## Cc1nc(Nc2ncc(C(=O)Nc3c(C)cccc3Cl)s2)cc(N2CCN(CCO)CC2)n1 [BMS-354825]
  inhibition of Imatinib-resistant mutant forms of the protein: inhibit all the mutant forms of the protein, except T3151
